In this test the test system is EBV lymphoblastoid cells (LCL) viability, plate reader. Briefly: LCL viability reduction – cell-based, plate reader, cherry-picks, set 2, cytotoxicity control, dose response (AID 504882).

Records with an inconclusive call do not appear.

By AC50 is commonly meant the concentration at which the activity in the assay is half-maximal. Take `COc1cc([C@@H]2c3cc4c(cc3[C@@H](O[C@@H]3O[C@@H]5CO[C@@H](C)O[C@H]5[C@H](O)[C@H]3O)[C@H]3COC(=O)[C@H]23)OCO4)cc(OC)c1O`: the AC50 was 531 nM.

For the origin of these results see PubChem BioAssay AID504882 (Broad Institute, 2011).
